Laboratory results: ChEMBL document CHEMBL1151888, “Synthesis, initial SAR and biological evaluation of 1,6-dihydroimidazo[4,5-d]pyrrolo[2,3-b]pyridin-4-amine derived inhibitors of IkappaB kinase” (Bioorg Med Chem Lett, 2009)

Assay: Inhibition of IKK1-catalyzed phosphorylation of GST-tagged IkappaBalpha fusion protein by fluorescence polarization assay

| SMILES | IC50 [nM] | IC50 (read-out: IC50) [nM] |
| --- | --- | --- |
| CNc1nc2[nH]c(-c3cccc(CN)c3)cc2c2c1ncn2C | 11 | – |
| CNc1nc2[nH]c(-c3cccc(CNC(=O)CO)c3)cc2c2c1ncn2C | – | 25 |
